Experimental data as given in patent US6794384B1, “Hydroxylation activated drug release” (De Montfort University, priority 1998, dated 2004).

Legend:
[1] = test system: V79mz cells (V79 Cells); details: read-out: Growth Inhibition of Cells not Expressing CYP1B1, IC50, V79 Cells, MTT, 48 hours incubation, ± 2%
[2] = test system: V79mzhu1B1 cells (V791B1 Cells); details: for fold more cytotoxic against the cell line expressing CYP1B1: CYP1B1 expressing versus non-expressing cell line, from Table 1

Substance: 3,5-Dimethoxybenzyl/Mustard Prodrug [XIX]
- IC50 [1]: 3100 nM
- fold more cytotoxic against the cell line expressing CYP1B1 [2]: 3 fold
- Selectivity Factor ([2]; V79 Cells versus V791B1 Cells): 3.1
- IC50 ([2]; read-out: Growth Inhibition of Cells Expressing CYP1B1, IC50, V791B1 Cells, V791B1 cells expressing CYP1B1, MTT, 48 hours incubation, ± 2%): 1000 nM

Substance: 3-Methoxybenzyl/Mustard Prodrug [XVIII]
- fold more cytotoxic against the cell line expressing CYP1B1 [2]: 3 fold
